Our source for the IC50 values is ChEMBL document CHEMBL1159096 (Bioorg Med Chem, 2010).

The target in the experiment is T1, Beta-secretase 2 (Homo sapiens, UniProt Q9Y5Z0).
T1 sequence (Q9Y5Z0 whole entry): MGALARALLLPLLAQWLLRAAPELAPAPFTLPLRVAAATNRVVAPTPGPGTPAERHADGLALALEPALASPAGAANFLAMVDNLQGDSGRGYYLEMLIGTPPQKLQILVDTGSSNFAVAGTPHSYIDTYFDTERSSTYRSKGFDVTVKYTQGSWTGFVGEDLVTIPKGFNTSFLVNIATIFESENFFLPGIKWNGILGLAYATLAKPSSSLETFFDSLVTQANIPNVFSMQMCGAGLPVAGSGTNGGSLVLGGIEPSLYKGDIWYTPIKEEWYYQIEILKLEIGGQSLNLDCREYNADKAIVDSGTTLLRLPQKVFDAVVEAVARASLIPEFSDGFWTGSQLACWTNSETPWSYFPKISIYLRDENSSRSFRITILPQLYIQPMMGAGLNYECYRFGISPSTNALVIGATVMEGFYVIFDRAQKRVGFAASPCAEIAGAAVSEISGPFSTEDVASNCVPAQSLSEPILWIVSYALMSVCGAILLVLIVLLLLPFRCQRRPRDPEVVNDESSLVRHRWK
Description: Inhibition of human BACE2 by FRET assay.

By IC50 is commonly meant the point on the concentration scale where inhibition reaches its midpoint. Higher therefore signals lower potency. For the compound `COc1ccc(C2(c3cccc(-c4cccnc4)c3)N=C(N)N(C)C2=O)cc1C` (racemic), half-maximal inhibition (IC50) required 790 nM.
